Experimental data: US20190321329A1, “FORMULATION FOR THE TREATMENT OF ACNE” (published 2019)

Assay: Solubility in acetone (remark in suspension preparation)

In the case of Cc1ccc(C(=O)OOC(=O)c2ccc(C)cc2)cc1, the solubility in acetone is reported as “not very soluble in acetone”.
